Target: Orexin receptor type 2 (Homo sapiens, UniProt O43614)
Test: Cell-based Functional Assay: Measurement of [Ca2+]i using a FLIPR: CHO-OX1 or CHO-OX2 cells are seeded into black-walled clear-base 384-well plates (Costar) at a density of 20,000 cells per well in F12-K medium supplemented with 10% FBS and selection antibiotic (500 ug/ml G418 or 15 ug/ml Blasticidin) and cultured overnight. The cells are incubated with equal volume of calcium4 loading buffer …

Sequences of proteins named here, by UniProt entry; tags and fusion partners are left off.
UniProt O43614, whole entry: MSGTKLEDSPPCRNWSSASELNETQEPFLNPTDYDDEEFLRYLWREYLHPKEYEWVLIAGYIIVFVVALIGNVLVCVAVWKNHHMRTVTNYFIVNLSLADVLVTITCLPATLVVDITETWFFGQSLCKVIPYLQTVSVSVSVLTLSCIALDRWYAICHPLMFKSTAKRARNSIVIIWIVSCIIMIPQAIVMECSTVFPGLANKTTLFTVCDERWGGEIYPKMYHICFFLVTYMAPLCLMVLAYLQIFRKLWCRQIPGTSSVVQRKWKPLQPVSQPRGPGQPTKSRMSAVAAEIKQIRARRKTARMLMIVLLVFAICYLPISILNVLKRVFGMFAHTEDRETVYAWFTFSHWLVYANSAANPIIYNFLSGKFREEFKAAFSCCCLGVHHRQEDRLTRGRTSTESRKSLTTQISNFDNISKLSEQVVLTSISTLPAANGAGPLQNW

Structure (SMILES): Cc1ccc(-n2nccn2)c(C(=O)N2CCC[C@@H](C)[C@H]2CNc2ccc(C(F)(F)F)cn2)c1 (racemic)
- IC50: 2300 nM

Structure (SMILES): Cc1nc(C(=O)N2CCC[C@@H](C)[C@H]2CNc2nc3ccccc3o2)c(-c2ccc(F)cc2)s1 (racemic)
- IC50: 340 nM

Structure (SMILES): C[C@@H]1CCCN(C(=O)c2ccccc2-n2nccn2)[C@@H]1CNc1ccc(C(F)(F)F)cn1 (racemic)
- IC50: 500 nM

Structure (SMILES): Cc1ccc(-n2nccn2)c(C(=O)N2CCC[C@@H](C)[C@H]2CNc2ncc3ccccc3n2)c1
- IC50: 2000 nM

Structure (SMILES): Cc1nc(C(=O)N2CCC[C@@H](C(F)(F)F)[C@H]2CNc2nc3ccccc3o2)c(-c2ccccc2)s1 (racemic)
- IC50: 220 nM

Structure (SMILES): Cc1nc(C(=O)N2C[C@H]3CCC[C@H]3C2CNc2ncc(C(F)(F)F)cn2)c(-c2ccc(F)cc2)s1 (mixture of isomers)
- IC50: 5000 nM

Structure (SMILES): Cc1cccc(NC[C@@H]2[C@H](C)CCCN2C(=O)c2nc(C)sc2-c2ccc(F)cc2)n1 (racemic)
- IC50: 1400 nM

Structure (SMILES): Cc1nc(C(=O)N2CCC[C@H](C)[C@H]2CNc2nc3ccccc3o2)c(-c2ccc(F)cc2)s1 (racemic)
- IC50: 253 nM

Reference: ChEMBL document CHEMBL5726786, “Substituted prolines/piperidines as orexin receptor antagonists” (2018)
